The text below walks through data of article PMC9468336, “The choanoflagellate pore-forming lectin SaroL-1 punches holes in cancer cells by targeting the tumor-related glycosphingolipid Gb3” (Communications Biology, 2022).

Broadly, the IC50 is the concentration that inhibits the measured activity by half.

In this test the target is T1, hemolytic activity of SaroL-1 on rabbit erythrocytes (Salpingoeca rosetta, UniProt F2UID9).
T1 sequence (F2UID9 1-329): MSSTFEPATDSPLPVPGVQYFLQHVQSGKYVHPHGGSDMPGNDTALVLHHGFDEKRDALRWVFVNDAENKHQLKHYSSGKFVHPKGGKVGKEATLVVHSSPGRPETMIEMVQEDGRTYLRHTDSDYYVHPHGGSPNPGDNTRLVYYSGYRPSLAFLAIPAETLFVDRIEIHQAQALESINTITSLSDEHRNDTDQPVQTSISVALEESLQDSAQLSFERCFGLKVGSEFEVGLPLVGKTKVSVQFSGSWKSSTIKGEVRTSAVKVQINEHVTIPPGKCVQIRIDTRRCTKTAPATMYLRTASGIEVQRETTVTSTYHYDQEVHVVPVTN
Put plainly: Inhibition of hemolytic activity (IHA) of SaroL-1 by carbohydrates. As to conditions: SaroL-1 217 nM pre-incubated with carbohydrate; read-out: IC50 of inhibition of hemolysis. It counts as cell-based. Here is the method: Both HA and IHA assays were performed in U-shaped 96-well microtiter plates. In both cases, a control negative experiment was performed with Buffer A added to erythrocyte solution (2% final concentration), and the resulting value was subtracted from all data.
IHA was performed in U-shaped 96-well microtiter plates. […] 4% rabbit erythrocytes were added to the mixture in a 1:1 ratio and incubated for 1–2 h at 37 °C. The samples were centrifuged, 2600 × g for 15 min at RT, and the absorbance of the supernatant was measured at 540 nm by a Tecan reader.

`OC[C@H]1O[C@H](OCC2O[C@@H](O)[C@H](O)[C@@H](O)[C@@H]2O)[C@H](O)[C@@H](O)[C@H]1O` (stereo partly shown) [melibiose]: the IC50 came out at 1500 µM.
